Reference: US9587171B2, “Ammonium salts of chelating agents and their use in oil and gas field applications” (AKZO NOBEL CHEMICALS INTERNATIONAL B.V., priority 2010, dated 2017)

Conditions: room temperature, FIG. 2

Substance: ammonium salt of glutamic acid N,N-diacetic acid (GLDA) [ammonium GLDA]
- time CaCO3 is kept in solution: at least 5 days
- dissolution of CaCO3 (pH 3.2 to 10.2, especially at pH=3.2): able to dissolve significant quantities of CaCO3
